The record followed here is patent US9266814B2, “Use of nitrooxy organic molecules in feed for reducing methane emission in ruminants, and/or to improve ruminant performance” (DSM IP ASSETS B.V., priority 2010, dated 2016).

This assay concerns methane production of dairy cows. Nature of the assay: In vivo effect in dairy cows (indirect calorimeters). Also on record: species or system Holstein X Friesian dairy cows.

Consider `O=[N+]([O-])OCCCO` [Compound 1, 3-Nitrooxypropanol], for which the “methane yield, % of control methane yield” value is given as 93 % of control (high dose (2500 mg/d)) and 96 % of control (low dose (500 mg/d)).
